Protein sequences, listed by entry. Tags and fused reporters are not part of them.
Polyadenylate-binding protein 1 (Homo sapiens), P11940, UniProt P11940, whole entry, looked up: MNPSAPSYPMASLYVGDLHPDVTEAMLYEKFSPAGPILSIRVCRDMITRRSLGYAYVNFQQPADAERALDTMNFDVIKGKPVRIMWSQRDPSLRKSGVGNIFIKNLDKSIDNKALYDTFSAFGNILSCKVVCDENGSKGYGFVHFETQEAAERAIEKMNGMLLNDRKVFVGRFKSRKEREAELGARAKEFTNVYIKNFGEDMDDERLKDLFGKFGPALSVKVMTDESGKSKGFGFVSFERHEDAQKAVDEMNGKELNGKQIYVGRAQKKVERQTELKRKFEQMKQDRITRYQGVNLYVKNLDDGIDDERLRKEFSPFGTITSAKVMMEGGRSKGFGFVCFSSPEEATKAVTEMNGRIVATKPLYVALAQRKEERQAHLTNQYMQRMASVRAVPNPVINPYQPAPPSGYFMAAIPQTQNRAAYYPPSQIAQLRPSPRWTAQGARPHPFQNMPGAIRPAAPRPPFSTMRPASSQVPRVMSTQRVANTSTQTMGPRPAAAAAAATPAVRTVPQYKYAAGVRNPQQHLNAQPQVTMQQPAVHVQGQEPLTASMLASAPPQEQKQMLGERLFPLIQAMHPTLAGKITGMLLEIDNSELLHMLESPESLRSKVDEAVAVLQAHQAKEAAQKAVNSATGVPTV

# Assay outcomes deposited in PubChem BioAssay by several laboratories.
# PABP FP inh – PABP poly(A) RNA binding inhibitors, primary screen, biochemical, fluorescence polarization, uHTS. calls only at 35 µM. Polyadenylate-binding protein 1 (Homo sapiens), P11940. 290,000 compounds, 1% hits;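 also: calls also rest on retests at 20 µM and on dose response follow-up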
# Pemphigus Ab inh – inhibitors of pemphigus antibody binding to DSG3, primary screen, biochemical, bead-based, flow cytometry, scFv-GFP; DSG3-coupled beads, scFv-anti-DSG3-GFP binding; stronger effect = lower value; binding (percent of control), % at 10 µM; 310,000 compounds, 0.48% hits;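 active = binding more than 3 SD below its plate's average and above zero; inconclusive = below that plate limit but binding exactly zero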
# eIF4H inh – human eIF4H binding inhibitors, primary screen, translation initiation inhibitor project, biochemical, uHTS, fluorescence polarization. Eukaryotic translation initiation factor 4H (Homo sapiens), Q15056. inhibition, % at 35 µM. eIF4H fluorescence polarization binding assay. 290,000 compounds, 0.94% hits. AID 2012, 2009;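 also: calls also rest on retests at 20 µM and on dose response follow-up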
# PABP1 MLLE inh – inhibitors of PABP1 MLLE–PAM2 peptide binding, primary screen, biochemical, fluorescence polarization, FITC-PAM2, GST-MLLE; Polyadenylate-binding protein 1 (Homo sapiens), P11940; inhibition, % at 20 µM; 360,000 compounds, 0.36% hits; AID 588489, 2011; in the data active = inhibition above about 35%, passing the limit was not always enough;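 also: plate controls were DMSO wells with GST-MLLE for no effect and wells lacking GST-MLLE protein for full effect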
# UUG fidelity – modulators of start codon recognition fidelity in yeast; S. cerevisiae UUG-firefly luciferase reporter, luminescence/redox ratio; activity score, % at 18.7 µM; hit rate 0.13% among 350,000; AID 602363;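 active = replicate mean at a twofold rise or more, about +100% in these data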;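 note: firefly luciferase made from a UUG start codon reports start codon fidelity; reporter light over untreated wells divided by growth signal over untreated wells; some hits fall short of that in this replicate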
# * marks the source's active call; other numbers are inactive results; i = inactive; u = inconclusive; x = not tested or not shown; + = active, no number; ! = a repeat was not active. Sampled rows, rich in hits. Any-hit rate of the full collection: about 1.5%. Unless noted, no rule for the calls is given here.
cpd	PABP FP inh	Pemphigus Ab inh	eIF4H inh	PABP1 MLLE inh	UUG fidelity	smiles
1	x	116.3	x	-109.6	-29.8	O=C(Nc1ccc2ncccc2c1)c1ccccc1
2	+	107.4	0.4	-132.2	8.0	O=C(Nc1ccc2ncccc2c1)c1ccccc1Cl
3	x	x	x	x	-5.7	O=C(Nc1ccc2c(c1)OCO2)N[C@H]1CC[C@@H](CCNC(=O)C2CCOCC2)O[C@H]1CO
4	i	89.2	21.6	45.1*	-4.1	O=[N+]([O-])c1cc([N+](=O)[O-])c2cc3ccccc3nc2c1
5	i	99.5	3.7	10.1	-15.1	O=[N+]([O-])c1cnc2ccccc2c1
6	x	x	x	x	4.9	C[C@@H]1CCCCO[C@H](CN(C)C(=O)c2ccncc2)[C@H](C)CN([C@@H](C)CO)C(=O)c2cc(NC(=O)NC3CCCCC3)ccc2O1
7	i	105.8	2.9	5.2	-3.3	CC(=O)c1c(C(C)=O)c(C)n(-c2ccc(C(=O)O)cc2)c1C
8	+	105.0	65.0*	8.3	-9.2	Cc1cc(=O)n(-c2ccc(C(=O)O)cc2)[nH]1
9	+	x	91.3*	x	x	Cc1ccc(C)n1-c1ccc(C(=O)O)cc1
10	x	x	x	x	2.0	CC(=O)N1[C@H](CO)[C@@H](c2ccc(-c3cccc(F)c3)cc2)[C@H]1CNC(=O)C1CC1
11	x	x	x	x	-15.6	Cn1cnc(S(=O)(=O)N2CC[C@@H]3[C@H](CO)Nc4ccc(C#Cc5ccccc5F)cc4[C@@H]32)c1
12	+	101.3	3.1*	-1.5	-12.1	CCN(CC)CCCN1C(=O)C(=O)/C(=C(/O)c2ccc(C)cc2)C1c1ccccn1 (configuration not stated)
13	x	x	x	x	4.3	COc1ccc(S(=O)(=O)Nc2ccc3c(c2)C(=O)N([C@@H](C)CO)C[C@@H](C)[C@@H](CN(C)C(=O)NC2CCCCC2)OCCCC[C@H](C)O3)cc1
14	x	x	x	x	19.2	CO[C@H]1CN(C)C(=O)c2ccc(NS(=O)(=O)c3ccc(Cl)cc3)cc2OC[C@H](C)N(C(=O)NC(C)C)C[C@@H]1C
15	i	86.0*	-3.0	10.6	x	O=c1oc(-c2cccs2)nc2c1cnn2-c1ccccc1
16	i	102.0	2.5	-2.1	-10.7	O=c1oc(-c2ccccc2)nc2c1cnn2-c1ccccc1
17	x	x	x	x	-0.5	O=C(NCC[C@H]1CC[C@@H](NC(=O)c2ccc3c(c2)OCO3)[C@H](CO)O1)Nc1cc(F)ccc1F
18	+	98.3	3.7*	4.5	-18.0	Cc1cc(C(=O)OCC(=O)N2CC(=O)Nc3ccccc32)c(C)n1-c1ccccc1
19	i	116.4	12.3	-7.0	-19.7	Cc1cc(C(=O)OCC(=O)N2CC(=O)Nc3ccccc32)c(C)n1-c1ccc(F)cc1
20	x	x	x	x	-1.6	COc1ccc(NC(=O)Nc2ccc3c(c2)C(=O)N([C@@H](C)CO)C[C@@H](C)[C@@H](CN(C)Cc2ccncc2)OCCCC[C@H](C)O3)cc1
21	x	x	x	x	-10.5	CCCNC(=O)N1[C@H](CNC(C)=O)[C@@H](c2ccccc2)[C@@H]1CO
22	+	97.9	69.2*	-1.3	-14.0	c1csc(-c2nnsc2-c2nc3ccccc3[nH]2)c1
23	i	x	2.7	-10.3	-19.8	O=c1[nH]c2ccccc2nc1-c1cccs1
24	x	x	x	x	28.2	Cc1ccc(S(=O)(=O)Nc2ccc3c(c2)C(=O)N([C@@H](C)CO)C[C@@H](C)[C@@H](CN(C)CC2CCCCC2)OCCCC[C@@H](C)O3)cc1
25	i	110.2	-4.5	18.9	-10.8	C=CCOc1c(/C=N\NC(N)=O)cccc1OC
26	i	38.2*	1.8	-9.6	x	COc1cccc(Sc2ccccc2/C=N/NC(N)=O)c1
27	+	124.7	active	7.1	x	CC(C)(C)n1nc2c(c1NC(=O)COc1ccc(Cl)cc1)CS(=O)(=O)C2
28	i	101.4	-1.4	6.2	-3.1	Cc1cc(NC(=O)CS(=O)(=O)c2cn(Cc3cccc(F)c3)c3ccccc23)no1
29	i	-23.1*	-4.0	5.1	-7.8	Cc1cc(NC(=O)CS(=O)(=O)c2cn(Cc3ccc(F)cc3)c3ccccc23)no1
30	+	110.4	u	1.9	14.1	COc1cc(NC(C)C(=O)N2CC(C)OC(C)C2)cc(OC)c1 (configuration not stated)

# Printed as active in PABP1 MLLE inh, among the entries above:
cpd	PABP FP inh	Pemphigus Ab inh	eIF4H inh	PABP1 MLLE inh	UUG fidelity	smiles
4	i	89.2	21.6	45.1*	-4.1	O=[N+]([O-])c1cc([N+](=O)[O-])c2cc3ccccc3nc2c1

# Compound profiles (already shown).
# CC(=O)c1c(C(C)=O)c(C)n(-c2ccc(C(=O)O)cc2)c1C is entered as PABP FP inh = i; Pemphigus Ab inh = 105.8; eIF4H inh = 2.9; PABP1 MLLE inh = 5.2; UUG fidelity = -3.3
# CO[C@H]1CN(C)C(=O)c2ccc(NS(=O)(=O)c3ccc(Cl)cc3)cc2OC[C@H](C)N(C(=O)NC(C)C)C[C@@H]1C is entered as PABP FP inh = x; Pemphigus Ab inh = x; eIF4H inh = x; PABP1 MLLE inh = x; UUG fidelity = 19.2

# Further structures follow:
cpd	PABP FP inh	Pemphigus Ab inh	eIF4H inh	PABP1 MLLE inh	UUG fidelity	smiles
31	+	x	97.8*	5.5	-7.9	CC(=O)Nc1ccc(N2C(=O)CSC2c2ccc(F)cc2)cc1 (configuration not stated)
32	x	x	x	x	10.7	C[C@@H]1CCCCO[C@H](CN(C)S(=O)(=O)c2ccc(Cl)cc2)[C@@H](C)CN([C@@H](C)CO)C(=O)c2cc(NC(=O)c3ccncc3)ccc2O1
33	+	97.8	51.0	4.0	x	CCOc1ccccc1CNc1ccc(O)cc1
34	i	-25.1*	-1.2	-7.2	16.9	COCCN(CC(=O)Nc1cccc(C)c1)S(=O)(=O)c1ccc(S(=O)(=O)N2CCCC2)cc1
35	x	98.9	x	-9.7	6.8	Cc1cccc(NC(=O)CSCC(=O)Nc2ccc(S(=O)(=O)N3CCCCC3)cc2)c1
36	i	104.4	0.8	40.2*	x	CCCS(=O)(=O)N1CCN=C1SCc1cccnc1
37	x	x	x	x	-8.7	O=C(c1cccnc1)N1CCCCN2[C@H](C1)[C@H](c1ccc(C#Cc3ccccc3)cc1)[C@@H]2CO
38	+	91.2	active	3.0	x	O=C(N/N=C/c1ccccc1O)C1(O)c2ccccc2-c2ccccc21
39	i	107.8	-7.4	5.2	-1.5	Cc1c(/C=N/NC(=O)C2(O)c3ccccc3-c3ccccc32)cnn1C
40	i	98.2	2.8	26.6	-19.3	CCCCOc1ccc(/C=N/NC(=S)Nc2cc(C)ccc2C)cc1
41	i	2.8*	1.7	25.6	-31.5	CCCCOc1ccc(/C=N/NC(=S)Nc2cccc(C)c2C)cc1
42	+	98.0	u	-55.0	-9.1	CCOC(=O)c1c(Nc2ccc(Cl)cc2)sc(/C=C2\C=Nc3ccccc32)c1O
43	+	101.5	3.7*	-7.3	x	CC(C)n1nc(C(=O)Oc2cccc(Cl)c2Cl)c2ccccc2c1=O
44	i	83.0	-7.3	5.5	-15.5	CC(C)n1nc(C(=O)Oc2cc(Cl)ccc2Cl)c2ccccc2c1=O
45	+	204.1	127.5*	i	-27.0	Cn1c(=O)c(NCCc2ccccc2)c2c3c(cccc31)C(=O)c1ccccc1-2
46	i	105.0	4.0	-15.8	-12.5	COc1cc(C(=O)Nc2ccc3c(c2)C(=O)c2ccccc2C3=O)cc(OC)c1OC
47	i	71.8*	31.0	-0.7	x	COc1ccc(C(=O)Nc2ccc3c(c2)C(=O)c2ccccc2C3=O)cc1OC
48	x	103.5	x	32.4	-18.7	O=[N+]([O-])c1ccc(CSc2ccc(S(=O)(=O)N3CCCC3)cn2)cc1
49	x	85.7	x	37.5*	-0.1	O=[N+]([O-])c1ccc(CSc2ccc(S(=O)(=O)N3CCOCC3)cn2)cc1
50	i	118.0	1.6*!	-6.3	-2.3	CN(C)CCOC(c1ccccc1)c1ccccc1

# Results in sequence from above:
# Pemphigus Ab inh, compounds 39 to 44 → 107.8, 98.2, 2.8*, 98.0, 101.5, 83.0
